Experimental data published in PubChem BioAssay AID1259397 (Fisher Drug Discovery Resource Center, 2018).
This is a selection; strong and weak results do not stand in their true shares. Calls of active or inactive are those of the source.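 How the source made its calls: active means inhibition of cGAS enzyme activity at or above 60%; inactive means the rest.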

Amino acid sequences for entries named in this document (tags omitted).
UniProt Q8C6L5, whole entry: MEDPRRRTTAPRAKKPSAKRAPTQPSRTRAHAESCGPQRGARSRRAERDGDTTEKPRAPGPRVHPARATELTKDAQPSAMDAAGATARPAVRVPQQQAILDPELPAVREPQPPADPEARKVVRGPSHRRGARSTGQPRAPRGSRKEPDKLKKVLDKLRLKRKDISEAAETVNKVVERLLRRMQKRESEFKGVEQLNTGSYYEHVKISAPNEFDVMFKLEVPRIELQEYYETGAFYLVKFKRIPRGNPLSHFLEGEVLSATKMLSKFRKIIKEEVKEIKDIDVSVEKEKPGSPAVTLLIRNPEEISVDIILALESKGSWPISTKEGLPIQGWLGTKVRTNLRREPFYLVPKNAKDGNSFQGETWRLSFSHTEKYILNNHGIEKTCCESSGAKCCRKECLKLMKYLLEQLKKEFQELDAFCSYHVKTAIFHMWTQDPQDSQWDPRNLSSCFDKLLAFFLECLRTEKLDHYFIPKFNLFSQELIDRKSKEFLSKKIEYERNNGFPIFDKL

Target: Cyclic GMP-AMP synthase (Mus musculus) (UniProt Q8C6L5)
Experiment: inhibitors of Mus musculus cyclic GMP-AMP synthase, initial high-throughput assay, cell-free, RapidFire MS (AID 1259397);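 further: enzyme stimulated by 45 bp dsDNA with ATP and GTP substrates; cGAMP share of summed cGAMP plus half ATP and half GTP signals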
Details: recombinant mouse cGAS, cGAMP by RapidFire MS; at 12.5 µM; active compounds read high

SMILES	inhibition
CN(CCCl)CCCl	inactive: 26.4%
